Earlier results as cited in article PMC4987652 (Scientific Reports, 2016).

Sequences of proteins named here, by UniProt entry; tags and fusion partners are left off.
UniProt P35372, whole entry, looked up: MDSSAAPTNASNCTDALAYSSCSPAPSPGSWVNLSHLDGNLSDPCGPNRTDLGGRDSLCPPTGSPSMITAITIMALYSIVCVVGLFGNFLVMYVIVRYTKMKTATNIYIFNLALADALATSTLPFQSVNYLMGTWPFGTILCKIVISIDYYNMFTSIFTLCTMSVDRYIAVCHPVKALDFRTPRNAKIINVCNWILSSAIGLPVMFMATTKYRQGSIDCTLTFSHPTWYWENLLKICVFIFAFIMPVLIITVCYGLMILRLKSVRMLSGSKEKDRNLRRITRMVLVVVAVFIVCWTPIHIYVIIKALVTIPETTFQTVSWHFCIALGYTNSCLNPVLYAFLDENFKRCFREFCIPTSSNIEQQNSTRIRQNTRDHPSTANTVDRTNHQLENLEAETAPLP

Molecular target: human MOR (Homo sapiens, UniProt P35372)
Conditions: read-out: Kd of radioligand, MOR; assay condition of the binding assay; ref MDS Pharma Services; cited from earlier work

For CO[C@]12CC[C@@]3(C[C@@H]1C(C)(C)O)[C@H]1Cc4ccc(O)c5c4[C@@]3(CCN1CC1CC1)[C@H]2O5, which Kd is on record?
The Kd was 0.41 nM.
